Molecular target: Toll-like receptor 2 (Homo sapiens, UniProt O60603)
Assay: Agonist activity at human TLR2 expressed in HEK-Blue cells co-expressing NF-kappaB-SEAP reporter gene measured after 16 hrs by SEAP reporter gene assay
Assay type: cell-based
Procedure, shortened: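 HEK-Blue-hTLR2 cells carrying a TLR2-NF-κB-SEAP reporter system were incubated with diluted agonists for 16 h. SEAP was read as absorbance at 655 nm and background was subtracted. Normalized mean ± SEM came from at least triplicate wells. EC50 (nM) was obtained by nonlinear regression curve fit of the normalized absorbance values.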

Chains of the proteins cited; added tags and fusions are not shown.
UniProt O60603, whole entry: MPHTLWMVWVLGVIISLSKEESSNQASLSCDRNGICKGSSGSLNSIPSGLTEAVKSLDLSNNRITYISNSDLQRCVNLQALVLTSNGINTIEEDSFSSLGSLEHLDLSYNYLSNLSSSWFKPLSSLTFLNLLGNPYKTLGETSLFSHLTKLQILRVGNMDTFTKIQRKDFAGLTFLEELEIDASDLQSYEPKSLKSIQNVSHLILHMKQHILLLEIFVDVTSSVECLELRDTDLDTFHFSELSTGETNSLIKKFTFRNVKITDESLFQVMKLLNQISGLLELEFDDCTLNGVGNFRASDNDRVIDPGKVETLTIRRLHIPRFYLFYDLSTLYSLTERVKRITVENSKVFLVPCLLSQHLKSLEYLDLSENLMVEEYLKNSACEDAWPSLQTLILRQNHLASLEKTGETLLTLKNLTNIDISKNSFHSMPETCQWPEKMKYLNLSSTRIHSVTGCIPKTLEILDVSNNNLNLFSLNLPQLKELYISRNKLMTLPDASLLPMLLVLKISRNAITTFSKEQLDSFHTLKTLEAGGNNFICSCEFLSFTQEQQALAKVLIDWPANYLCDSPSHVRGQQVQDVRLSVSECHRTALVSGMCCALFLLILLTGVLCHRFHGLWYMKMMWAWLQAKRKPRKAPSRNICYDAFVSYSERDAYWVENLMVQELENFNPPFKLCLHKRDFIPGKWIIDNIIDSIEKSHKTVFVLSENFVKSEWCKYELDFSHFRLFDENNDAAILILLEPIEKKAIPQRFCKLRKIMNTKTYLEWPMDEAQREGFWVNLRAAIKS

| Structure (SMILES) | EC50 [nM] |
| --- | --- |
| CCCCCCCCCCCCCCCC(=O)OCC[C@@H](CSC[C@H](N)C(=O)N[C@@H](CO)C(=O)N[C@@H](CCCCN)C(=O)N[C@@H](CCCCN)C(=O)N[C@@H](CCCCN)C(=O)N[C@@H](CCCCN)C(=O)N[C@@H](CO)C(=O)N[C@@H](CC(C)C)C(=O)N[C@@H](CC(C)C)C(=O)N[C@@H](CCSC)C(=O)N[C@@H](Cc1c[nH]c2ccccc12)C(=O)N[C@H](C(=O)N[C@H](C(=O)N[C@@H](CCC(N)=O)C(=O)N[C@H](C(=O)O)C(C)C)[C@@H](C)O)[C@@H](C)CC)OC(=O)CCCCCCCCCCCCCCC | 46.2 |
| CCCCCCCCCCCCCCCC(=O)OCCCCC[C@H](CSC[C@H](N)C(=O)N[C@@H](CO)C(=O)N[C@@H](CCCCN)C(=O)N[C@@H](CCCCN)C(=O)N[C@@H](CCCCN)C(=O)N[C@@H](CCCCN)C(=O)N[C@@H](CO)C(=O)N[C@@H](CC(C)C)C(=O)N[C@@H](CC(C)C)C(=O)N[C@@H](CCSC)C(=O)N[C@@H](Cc1c[nH]c2ccccc12)C(=O)N[C@H](C(=O)N[C@H](C(=O)N[C@@H](CCC(N)=O)C(=O)N[C@H](C(=O)O)C(C)C)[C@@H](C)O)[C@@H](C)CC)OC(=O)CCCCCCCCCCCCCCC | 4.44 |
| CCCCCCCCCCCCCCCC(=O)OCCCC[C@H](CSC[C@H](N)C(=O)N[C@@H](CO)C(=O)N[C@@H](CCCCN)C(=O)N[C@@H](CCCCN)C(=O)N[C@@H](CCCCN)C(=O)N[C@@H](CCCCN)C(=O)N[C@@H](CO)C(=O)N[C@@H](CC(C)C)C(=O)N[C@@H](CC(C)C)C(=O)N[C@@H](CCSC)C(=O)N[C@@H](Cc1c[nH]c2ccccc12)C(=O)N[C@H](C(=O)N[C@H](C(=O)N[C@@H](CCC(N)=O)C(=O)N[C@H](C(=O)O)C(C)C)[C@@H](C)O)[C@@H](C)CC)OC(=O)CCCCCCCCCCCCCCC | 0.304 |
| CCCCCCCCCCCCCCCC(=O)OCCC[C@H](CSC[C@H](N)C(=O)N[C@@H](CO)C(=O)N[C@@H](CCCCN)C(=O)N[C@@H](CCCCN)C(=O)N[C@@H](CCCCN)C(=O)N[C@@H](CCCCN)C(=O)N[C@@H](CO)C(=O)N[C@@H](CC(C)C)C(=O)N[C@@H](CC(C)C)C(=O)N[C@@H](CCSC)C(=O)N[C@@H](Cc1c[nH]c2ccccc12)C(=O)N[C@H](C(=O)N[C@H](C(=O)N[C@@H](CCC(N)=O)C(=O)N[C@H](C(=O)O)C(C)C)[C@@H](C)O)[C@@H](C)CC)OC(=O)CCCCCCCCCCCCCCC | 0.383 |
| CCCCCCCCCCCCCCCC(=O)OCC[C@@H](CSC[C@H](NC(C)=O)C(=O)N[C@@H](CO)C(=O)N[C@@H](CCCCN)C(=O)N[C@@H](CCCCN)C(=O)N[C@@H](CCCCN)C(=O)N[C@@H](CCCCN)C(=O)N[C@@H](CO)C(=O)N[C@@H](CC(C)C)C(=O)N[C@@H](CC(C)C)C(=O)N[C@@H](CCSC)C(=O)N[C@@H](Cc1c[nH]c2ccccc12)C(=O)N[C@H](C(=O)N[C@H](C(=O)N[C@@H](CCC(N)=O)C(=O)N[C@H](C(=O)O)C(C)C)[C@@H](C)O)[C@@H](C)CC)OC(=O)CCCCCCCCCCCCCCC | 17.4 |
| CCCCCCCCCCCCCCCC(=O)OC[C@@H](CSC[C@H](NC(C)=O)C(=O)N[C@@H](CO)C(=O)N[C@@H](CCCCN)C(=O)N[C@@H](CCCCN)C(=O)N[C@@H](CCCCN)C(=O)N[C@@H](CCCCN)C(=O)N[C@@H](CO)C(=O)N[C@@H](CC(C)C)C(=O)N[C@@H](CC(C)C)C(=O)N[C@@H](CCSC)C(=O)N[C@@H](Cc1c[nH]c2ccccc12)C(=O)N[C@H](C(=O)N[C@H](C(=O)N[C@@H](CCC(N)=O)C(=O)N[C@H](C(=O)O)C(C)C)[C@@H](C)O)[C@@H](C)CC)OC(=O)CCCCCCCCCCCCCCC | 151 |

The remaining compounds from weak to strong by EC50, led by results:

| EC50 [nM] | Structure (SMILES) |
| --- | --- |
| 161 | CCCCCCCCCCCCCCCC(=O)N[C@@H](CSC[C@H](COC(=O)CCCCCCCCCCCCCCC)OC(=O)CCCCCCCCCCCCCCC)C(=O)N[C@@H](CO)C(=O)N[C@@H](CCCCN)C(=O)N[C@@H](CCCCN)C(=O)N[C@@H](CCCCN)C(=O)N[C@@H](CCCCN)C(=O)N[C@@H](CO)C(=O)N[C@@H](CC(C)C)C(=O)N[C@@H](CC(C)C)C(=O)N[C@@H](CCSC)C(=O)N[C@@H](Cc1c[nH]c2ccccc12)C(=O)N[C@H](C(=O)N[C@H](C(=O)N[C@@H](CCC(N)=O)C(=O)N[C@H](C(=O)O)C(C)C)[C@@H](C)O)[C@@H](C)CC |
| 156 | CCCCCCCCCCCCCCCC(=O)OC[C@@H](CSC[C@H](N)C(=O)N[C@@H](CO)C(=O)N[C@@H](CCCCN)C(=O)N[C@@H](CCCCN)C(=O)N[C@@H](CCCCN)C(=O)N[C@@H](CCCCN)C(=O)N[C@@H](CO)C(=O)N[C@@H](CC(C)C)C(=O)N[C@@H](CC(C)C)C(=O)N[C@@H](CCSC)C(=O)N[C@@H](Cc1c[nH]c2ccccc12)C(=O)N[C@H](C(=O)N[C@H](C(=O)N[C@@H](CCC(N)=O)C(=O)N[C@H](C(=O)O)C(C)C)[C@@H](C)O)[C@@H](C)CC)OC(=O)CCCCCCCCCCCCCCC |
| 23 | CCCCCCCCCCCCCCCC(=O)N[C@@H](CSC[C@@H](COC(=O)CCCCCCCCCCCCCCC)OC(=O)CCCCCCCCCCCCCCC)C(=O)N[C@@H](CO)C(=O)N[C@@H](CCCCN)C(=O)N[C@@H](CCCCN)C(=O)N[C@@H](CCCCN)C(=O)N[C@@H](CCCCN)C(=O)N[C@@H](CO)C(=O)N[C@@H](CC(C)C)C(=O)N[C@@H](CC(C)C)C(=O)N[C@@H](CCSC)C(=O)N[C@@H](Cc1c[nH]c2ccccc12)C(=O)N[C@H](C(=O)N[C@H](C(=O)N[C@@H](CCC(N)=O)C(=O)N[C@H](C(=O)O)C(C)C)[C@@H](C)O)[C@@H](C)CC |
| 1.16 | CCCCCCCCCCCCCCCC(=O)OCC[C@H](CSC[C@H](NC(C)=O)C(=O)N[C@@H](CO)C(=O)N[C@@H](CCCCN)C(=O)N[C@@H](CCCCN)C(=O)N[C@@H](CCCCN)C(=O)N[C@@H](CCCCN)C(=O)N[C@@H](CO)C(=O)N[C@@H](CC(C)C)C(=O)N[C@@H](CC(C)C)C(=O)N[C@@H](CCSC)C(=O)N[C@@H](Cc1c[nH]c2ccccc12)C(=O)N[C@H](C(=O)N[C@H](C(=O)N[C@@H](CCC(N)=O)C(=O)N[C@H](C(=O)O)C(C)C)[C@@H](C)O)[C@@H](C)CC)OC(=O)CCCCCCCCCCCCCCC |
| 0.609 | CCCCCCCCCCCCCCCC(=O)OCC[C@H](CSC[C@H](N)C(=O)N[C@@H](CO)C(=O)N[C@@H](CCCCN)C(=O)N[C@@H](CCCCN)C(=O)N[C@@H](CCCCN)C(=O)N[C@@H](CCCCN)C(=O)N[C@@H](CO)C(=O)N[C@@H](CC(C)C)C(=O)N[C@@H](CC(C)C)C(=O)N[C@@H](CCSC)C(=O)N[C@@H](Cc1c[nH]c2ccccc12)C(=O)N[C@H](C(=O)N[C@H](C(=O)N[C@@H](CCC(N)=O)C(=O)N[C@H](C(=O)O)C(C)C)[C@@H](C)O)[C@@H](C)CC)OC(=O)CCCCCCCCCCCCCCC |
| 0.468 | CCCCCCCCCCCCCCCC(=O)OC[C@H](CSC[C@H](N)C(=O)N[C@@H](CO)C(=O)N[C@@H](CCCCN)C(=O)N[C@@H](CCCCN)C(=O)N[C@@H](CCCCN)C(=O)N[C@@H](CCCCN)C(=O)N[C@@H](CO)C(=O)N[C@@H](CC(C)C)C(=O)N[C@@H](CC(C)C)C(=O)N[C@@H](CCSC)C(=O)N[C@@H](Cc1c[nH]c2ccccc12)C(=O)N[C@H](C(=O)N[C@H](C(=O)N[C@@H](CCC(N)=O)C(=O)N[C@H](C(=O)O)C(C)C)[C@@H](C)O)[C@@H](C)CC)OC(=O)CCCCCCCCCCCCCCC |
| 0.281 | CCCCCCCCCCCCCCCC(=O)OC[C@H](CSC[C@H](NC(C)=O)C(=O)N[C@@H](CO)C(=O)N[C@@H](CCCCN)C(=O)N[C@@H](CCCCN)C(=O)N[C@@H](CCCCN)C(=O)N[C@@H](CCCCN)C(=O)N[C@@H](CO)C(=O)N[C@@H](CC(C)C)C(=O)N[C@@H](CC(C)C)C(=O)N[C@@H](CCSC)C(=O)N[C@@H](Cc1c[nH]c2ccccc12)C(=O)N[C@H](C(=O)N[C@H](C(=O)N[C@@H](CCC(N)=O)C(=O)N[C@H](C(=O)O)C(C)C)[C@@H](C)O)[C@@H](C)CC)OC(=O)CCCCCCCCCCCCCCC |

From ChEMBL document CHEMBL4402521, “Synthesis and Evaluation of Novel TLR2 Agonists as Potential Adjuvants for Cancer Vaccines” (J Med Chem, 2020)
